# Bioassay records (PubChem BioAssay)
# Sampled rows, rich in hits. Any-hit rate of the full collection: about 0.92%.
# Coupling enz: counter-screen for Giardia aldolase inhibitors: coupling enzyme system; coupling enzyme system counterscreen, AmpLite Red fluorescence; activity change, negative = inhibition, % at 58.2 µM, hits read low; AID 2472; 0.67% of 290,000 active; in the data active = activity change below about -30%; note: % is set by controls: 0 for no effect and ±100 for the full control effect
#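 Fluorescence at 525 nm excitation and 598 nm emission measured inhibition of the coupled detection system without aldolase. Compounds (at 57.5 uM final) were preincubated 10 min at room temperature with coupling enzyme reagent before a 20 min substrate/AmpLite Red step.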
# uPA surface inh: blocks generation of uPA at the cell surface. cell surface uPA generation assay, qHTS. Potency, µM (top dose mostly 38.3 µM), for the others: at the highest dose activity change, negative = inhibition, usual class: inhibitors. 0.31% of 330,000 active. AID 540303; active = well fitted inhibition curve with a large enough effect; inconclusive = small, poorly fitted or top-dose-only effect; inactive = no such curve, though single readings can be large or run the other way; tested in mouse RAW 264.7 cells; note: potency is the fitted concentration of half-maximal effect; % is set by controls: 0 for no effect and ±100 for the full control effect; nearly all actives have a fitted effect of over 55% in size
# miR-21 reporter: raises the signal of a miR-21 reporter | HeLa miR-21 FLuc reporter, luciferase, 48 h | Potency, µM (doses to about 38.3 µM), for the others: at the highest dose reporter change, positive = more light | 340,000 tested, under 10 active | AID 2288; active = well fitted rising curve with a large enough effect; inconclusive = small, poorly fitted or top-dose-only effect; inactive = no such curve, though single readings can be large or run the other way;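 also: % of control where 0% means no effect; miR-21 action dims this reporter so a rising signal means less miR-21 action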
#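 HeLa cells endogenously expressing miR-21, stably carrying CMV-driven firefly luciferase with a downstream miR-21 binding site, 2000 cells/well. Titrations up to approximately 40 uM, 48 hours; luciferase luminescence read.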
# GALK inh: galactokinase (human) inhibition; Purified GALK, Kinase-Glo residual ATP luminescence; 0.007% of 270,000 active; AID 1868; P51570; Potency, µM (top dose mostly 57.5 µM), without a hit: at the top dose activity change, negative = inhibition, usual class: inhibitors; note: potency is the fitted concentration of half-maximal effect; % is set by controls: 0 for no effect and ±100 for the full control effect
#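 ATP-depletion format; final 35 uM ATP, 100 uM D-galactose, 5 nM enzyme; pH 8.0 HEPES/Mg2+ buffer; 60 min RT; luminescence read 10 min after detection reagent.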
# B2AR arrestin: recruits beta-arrestin to the human beta2-adrenergic receptor; P07550; beta-arrestin recruitment to beta2AR, cell-based reporter; Potency, µM (series often up to 46.1 µM), for the others: top-dose activation, actives largely listed as activators; 0.02% of 330,000 active; AID 492947;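 note: potency is the fitted concentration of half-maximal effect; 0% = DMSO controls and full agonism = EC100 isoproterenol or metaproterenol; nearly all actives have a fitted effect of over 65% in size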
# Giardia kill: kills Giardia lamblia | Giardia lamblia trophozoite viability | activity change, % at 7.66 µM, hits read low | 0.15% of 340,000 active | AID 540267; in the data active = activity change below about -80%; inconclusive = between about -30% and that limit;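 note: parasites exposed to compound for two days anaerobically before the ATP read; % is set by controls: 0 for no effect and ±100 for the full control effect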
#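 Media and compound were dispensed first, then trophozoites at 100 cells/well; plates sat 48 hrs at 37 deg C without oxygen before ATP luminescence reagent was added and read after 15-30 min at room temperature.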
# * marks the source's active call; other numbers are inactive results; u = inconclusive; x = no result. Unless noted, calls come from the whole dose curve; as a rule, active = well fitted curve in the direction sought with a large enough effect; inconclusive = small, poorly fitted or top-dose-only effect, or another doubt; inactive = no such curve, though single readings can be large; an effect the other way counts as inactive or inconclusive.
SMILES,Coupling enz,uPA surface inh,miR-21 reporter,GALK inh,B2AR arrestin,Giardia kill
Cn1c2ccccc2c2nnc(SCCOc3ccccc3)nc21,x,x,x,x,x,-2
CC(C)(C)NCC(O)COc1ccccc1C(C)(C)C (stereo unspecified),-1,1%,-13%,1%,0%,-12
Cc1c[nH]c2cccc(OCC(O)CNC(C)(C)C)c12 (stereo unspecified),-35*,x,-2%,2%,0%,1
NS(=O)(=O)c1cccc2cccnc12,0,6%,-4%,1%,0%,8
C=CCS(=O)(=O)c1cccc2cccnc12,-34*,-1%,-3%,0%,0%,17
CCOc1ccccc1CNC(=O)Cc1ccc(NC(=O)N2CCCCc3ccccc32)cc1,x,x,29%,x,x,x
CC(C)CCn1c(=O)c2sccc2n2c(CCCC(=O)NC(C)C)nnc12,x,x,0%,x,x,x
N#C/C(=C(/O)c1ccc(Br)s1)c1nc2ccccc2[nH]1,1,3.5µM*,-1%,x,6%,-9
CCCS(=O)(=O)Nc1cccc(-c2cn3ccc(C)cc3n2)c1,x,x,-18%,x,x,x
Cc1oc(-c2ccc(Cl)cc2)nc1CSc1nnc(C)n2c1cc1sccc12,x,x,0%,x,x,x
COc1ccc(-n2c(N)c(C#N)c3ccc([N+](=O)[O-])cc3c2=O)cc1,-42*,3%,-32%,-3%,-1%,0
COc1cccc(-n2c(N)c(C#N)c3ccc([N+](=O)[O-])cc3c2=O)c1,0,x,-9%,1%,0%,x
Cc1ccc(C(=O)Nc2ccc3c(c2)OCCO3)c(Cl)c1,-2,u,17%,2%,-2%,-83*
COC1=C(Nc2ccc(OC)cc2)C(=O)c2ccccc2C1=O,-34*,-4%,-30%,5%,0%,15
COC1=C(Nc2ccc(OC)cc2)C(=O)C(OC)=C(Nc2ccc(OC)cc2)C1=O,x,3%,x,x,x,-7
COC1=C(Nc2ccc(O)cc2)C(=O)c2ccccc2C1=O,-33*,-7%,-2%,3%,-1%,-15
Cc1cccc(NC(=O)c2onc3c2CCCC3)n1,0,4µM*,7%,x,0%,u
Cc1cccc(NC(=O)c2onc3c2CCCC3)c1C,3,-7%,-47%,0%,0%,-8
Cc1cc(C)c(NC(=O)C2CCN(S(=O)(=O)c3c(C)noc3/C=C/c3ccccc3F)CC2)c(C)c1,x,x,2%,x,x,x
CN1CCc2nc(SCC(=O)Nc3ccc(OC(F)(F)F)cc3)c(C#N)c(-c3cccs3)c2C1,-51*,2%,8%,1%,-1%,-1
CN1CCc2nc(SCC(=O)Nc3cccc(F)c3)c(C#N)c(-c3cccs3)c2C1,-10,4%,-14%,0%,-1%,-4
CCc1ccccc1NC(=O)CN1CCN(C(=O)CNC(=O)c2ccc(-c3ccccc3)cc2)CC1,x,3.2µM*,x,x,-1%,10
CCCCCC1CCC(c2n[nH]c(=S)n2C)CC1 (stereo unspecified),1,6%,20%,3%,4µM*,-19
Cc1cc(C)cc(NS(=O)(=O)c2ccc(N3CCCCS3(=O)=O)cc2)c1,x,x,13%,x,x,x
COc1ccc(-c2cc(C(F)F)n3ncc(C(=O)N4CCN(C(=O)c5ccco5)CC4)c3n2)cc1,0,10µM*,-3%,-2%,0%,11

# Given bar-delimited: entries from further up.
Compound | Coupling enz | uPA surface inh | miR-21 reporter | GALK inh | B2AR arrestin | Giardia kill
Cc1c[nH]c2cccc(OCC(O)CNC(C)(C)C)c12 (stereo unspecified) | -35* | x | -2% | 2% | 0% | 1
COc1ccc(-n2c(N)c(C#N)c3ccc([N+](=O)[O-])cc3c2=O)cc1 | -42* | 3% | -32% | -3% | -1% | 0
Cn1c2ccccc2c2nnc(SCCOc3ccccc3)nc21 | x | x | x | x | x | -2

# Back to the main list, repeating the 3 entries before the break.
SMILES,Coupling enz,uPA surface inh,miR-21 reporter,GALK inh,B2AR arrestin,Giardia kill
CCCCCC1CCC(c2n[nH]c(=S)n2C)CC1 (stereo unspecified),1,6%,20%,3%,4µM*,-19
Cc1cc(C)cc(NS(=O)(=O)c2ccc(N3CCCCS3(=O)=O)cc2)c1,x,x,13%,x,x,x
COc1ccc(-c2cc(C(F)F)n3ncc(C(=O)N4CCN(C(=O)c5ccco5)CC4)c3n2)cc1,0,10µM*,-3%,-2%,0%,11
CCOc1ccc(CCNC(=O)c2cnc3sc(N4CCCCC4)nn3c2=O)cc1,x,x,1%,x,x,x
CCOC(=O)c1c(C)[nH]c(C=Nc2ccccc2)c1O,-36*,x,-11%,-1%,0%,x
CCOC(=O)c1c(C)[nH]c(C=Nc2ccc(OC)cc2)c1O,-6,-10%,-47%,0%,0%,-8
Cc1ccc(C(=O)Nc2cccc(NC(=O)c3cccs3)c2)c(C)c1,-1,13µM*,3%,-3%,0%,-10
COc1cccc([C@@H]2Oc3ccc(OC)cc3C[C@H]2OC(=O)Nc2cc(OC)c(OC)c(OC)c2)c1,4,x,x,x,x,x
COc1cccc(C2=Nn3c(nnc3-c3cccc(OC)c3OC)SC2)c1,1,x,x,x,x,x
Cc1c(C(=O)c2ccc(Cl)c([N+](=O)[O-])c2)c2ccccn2c1CCC#N,-5,-14%,2%,-3%,0%,2
Cc1c(C(=O)c2ccc(Cl)cc2[N+](=O)[O-])c2ccccn2c1CCC#N,6,-3%,-13%,2%,-1%,-100*
Cc1c(C(=O)c2ccc(F)cc2F)c2ccccn2c1CCC#N,-40*,0%,-8%,-1%,0%,6
Cc1c(C(=O)c2ccc(N(C)C)cc2)c2ccccn2c1CCC#N,-11,6%,-30%,-4%,0%,6
O=C(O)Cc1cccc(OCCCN(Cc2cccc(C(F)(F)F)c2Cl)CC(c2ccccc2)c2ccccc2)c1,6,x,x,x,x,x
CCc1c(C)nc2cc(-c3ccccc3)[nH]n2c1=O,0,-11%,-47%,0%,0%,2
C=CCc1c(C)nc2cc(-c3ccc(C)cc3)[nH]n2c1=O,2,11µM*,-38%,-4%,0%,-27
O=Nc1c(O)[nH]c2c(Cl)c(Cl)ccc12,-1,x,x,x,x,x
COc1cc(O)cc(OC)c1OC,-33*,x,x,x,x,x
O=C(OCC1OC(OC(=O)c2cc(O)c(O)c(OC(=O)c3cc(O)c(O)c(O)c3)c2)[C@@H](OC(=O)c2cc(O)c(O)c(OC(=O)c3cc(O)c(O)c(O)c3)c2)C(OC(=O)c2cc(O)c(O)c(OC(=O)c3cc(O)c(O)c(O)c3)c2)C1OC(=O)c1cc(O)c(O)c(OC(=O)c2cc(O)c(O)c(O)c2)c1)c1cc(O)c(O)c(OC(=O)c2cc(O)c(O)c(O)c2)c1 (stereo partly specified),-23,x,x,x,x,x
CC(C)(C)c1ccc(C(=O)NC2(C(F)(F)F)NC(=O)N(CCc3ccccc3)C2=O)cc1 (stereo unspecified),x,x,17%,x,x,x
COc1cc(/C=C(\C#N)C(=O)Nc2ccc3c(c2)OCCO3)ccc1O,-1,10µM*,1%,-2%,0%,-7
COc1cc(/C=C/C(=O)OCC(=O)Nc2ccc3c(c2)OCCO3)ccc1O,0,-16%,-4%,0%,1%,21
COc1cc(SSc2cc(OC)cc([N+](=O)[O-])c2N)c(N)c([N+](=O)[O-])c1,-30*,-7%,-9%,8%,14µM*,-25
O=C(Oc1c(CN2CCOCC2)cc(Cl)c2cccnc12)c1ccccc1F,-12,-4%,u,-8%,5.6µM*,16
COc1cc(OC)cc(C(=O)Oc2c(CN3CCOCC3)cc(Cl)c3cccnc23)c1,-8,0%,29%,-3%,4µM*,-11
Cc1ccc(CN=Cc2[nH]c3ccc(Br)c(Cl)c3c2O)cc1,-40*,-2%,-1%,3%,3%,8
Cc1ccc(-c2nnc(SCC(=O)Nc3ccccc3F)o2)cc1,3,8.9µM*,u,2%,0%,-20
